# Values quoted from earlier work in patent publication US7645767B2, “Pharmaceutical compositions for treating chronic pain and pain associated with neuropathy” (Trinity Laboratories, Inc., priority 2006, dated 2010).
# Sequences of proteins named here, by UniProt entry; tags and fusion partners are left off.
# UniProt P35372, whole entry: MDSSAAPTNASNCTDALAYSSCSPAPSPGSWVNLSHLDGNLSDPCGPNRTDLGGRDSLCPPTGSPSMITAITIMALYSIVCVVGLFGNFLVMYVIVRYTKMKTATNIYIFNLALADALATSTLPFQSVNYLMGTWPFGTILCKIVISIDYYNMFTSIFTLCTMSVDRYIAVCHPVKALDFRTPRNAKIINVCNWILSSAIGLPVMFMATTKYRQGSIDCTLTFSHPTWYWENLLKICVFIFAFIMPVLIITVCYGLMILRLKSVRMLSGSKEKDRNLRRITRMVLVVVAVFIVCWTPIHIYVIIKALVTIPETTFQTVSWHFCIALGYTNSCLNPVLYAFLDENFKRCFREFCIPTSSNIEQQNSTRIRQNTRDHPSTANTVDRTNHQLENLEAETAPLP
# Target: μ-opiate receptors (Homo sapiens, UniProt P35372)
# Settings: relative to tramadol
compound,measurement,value
CN(C)C[C@H]1CCCC[C@]1(O)c1cccc(O)c1 [O-desmethyltramadol],affinity for the μ-opiate receptor compared with parent drug,higher affinity
